Biological target: human CD22 (d1 to d7 domain according to NP_001762.2) (human) (UniProt P20273)
Experiment: SPR

Kd: 0.431 nM
B1: TNT70 variant RL1 N92K (antibody, V domains shown)
VH: QVQLLESGGGVVQPGGSLRLSCAASGFAFSIYDMNWVRQAPGKGLEWVSAISSGGGTTYYADSVKGRFTISRDNAKNSLYLQMNSLRAEDTAVYYCARHSGYGTHWGVLFAYWGRGTLVTVSS
VL: DIQMTQSPSSLSASVGDRVTITCRASQDIHGYLNWYQQKPGKAPKLLIYYTSILHSGVPSRFSGSGSGTDFTLTISSLQPEDFATYFCQQGKTLPWTFGQGTKLEIK
